How the values were obtained:
Format in all cases: biochemical
Settings in all cases: ATP at twice the Km, read-out: IC50, NaPP1
[1] = target: T1, mHck-TA-HART (Mus musculus, UniProt P08103, A89S/E88T/E93W/H91F/I90P/Q521E/Q522E/Q523I/R92P/T331A); assay: Z'-Lyte in vitro kinase assay, mHck-TA-HART alone
T1 construct: the N-terminal unique domain was replaced with a hexahistidine tag; hexahistidine (N); made in house; host or cells: Sf9 insect cells (baculovirus)
Protocol: (§1) Protein-tyrosine kinase assays were performed using the FRET-based Z'-Lyte kinase assay kit and Tyr-2 peptide substrate according to the manufacturer's instructions (Life Technologies) and our previous work. All assays were performed in quadruplicate in low-volume, non-binding 384-well plates (Corning). To determine the Km for ATP, time course experiments were run at fixed concentrations of substrate (1 μM) and kinase in the presence of an ATP concentration range from 0 to 500 μM. The Km for ATP was then calculated from a plot of ATP concentration against initial reaction velocity followed by non-linear regression analysis (GraphPad Prism). For inhibition experiments, the assay was first optimized to determine the amount of kinase or kinase plus Nef (1:10 molar ratio) necessary to phosphorylate ~50% of the Tyr-2 peptide substrate in the presence of an ATP concentration equal to twice the Km. […] Fluorescence was assessed at an excitation wavelength of 400 nm; coumarin fluorescence and the fluorescein FRET signal were monitored at 445 and 520 nm, respectively. […] Raw fluorescence values were corrected for background, and reaction endpoints calculated as emission ratios of coumarin fluorescence divided by the fluorescein FRET signal. […] IC50 values were calculated using a sigmoidal curve fit using GraphPad Prism. […]

Sequences of proteins named here, by UniProt entry; tags and fusion partners are left off. Residues count along the entry.
UniProt P08103, 76-524 E88T/A89S/I90P/H91F/R92P/E93W/T331A/Q521E/Q522E/Q523I: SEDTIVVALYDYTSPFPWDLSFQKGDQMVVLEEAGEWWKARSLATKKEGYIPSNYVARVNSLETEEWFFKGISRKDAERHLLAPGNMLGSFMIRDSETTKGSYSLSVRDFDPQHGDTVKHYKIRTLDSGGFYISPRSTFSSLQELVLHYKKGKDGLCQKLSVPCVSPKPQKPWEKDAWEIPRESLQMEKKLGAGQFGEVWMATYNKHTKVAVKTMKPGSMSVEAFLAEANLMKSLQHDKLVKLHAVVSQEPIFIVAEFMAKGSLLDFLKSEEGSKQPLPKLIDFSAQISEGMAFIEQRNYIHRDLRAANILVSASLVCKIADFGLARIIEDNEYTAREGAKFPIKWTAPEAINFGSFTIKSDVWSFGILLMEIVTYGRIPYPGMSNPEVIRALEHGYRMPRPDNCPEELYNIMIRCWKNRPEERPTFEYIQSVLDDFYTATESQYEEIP
UniProt P08103, 76-524 T331A/Q521E/Q522E/Q523I limits assumed: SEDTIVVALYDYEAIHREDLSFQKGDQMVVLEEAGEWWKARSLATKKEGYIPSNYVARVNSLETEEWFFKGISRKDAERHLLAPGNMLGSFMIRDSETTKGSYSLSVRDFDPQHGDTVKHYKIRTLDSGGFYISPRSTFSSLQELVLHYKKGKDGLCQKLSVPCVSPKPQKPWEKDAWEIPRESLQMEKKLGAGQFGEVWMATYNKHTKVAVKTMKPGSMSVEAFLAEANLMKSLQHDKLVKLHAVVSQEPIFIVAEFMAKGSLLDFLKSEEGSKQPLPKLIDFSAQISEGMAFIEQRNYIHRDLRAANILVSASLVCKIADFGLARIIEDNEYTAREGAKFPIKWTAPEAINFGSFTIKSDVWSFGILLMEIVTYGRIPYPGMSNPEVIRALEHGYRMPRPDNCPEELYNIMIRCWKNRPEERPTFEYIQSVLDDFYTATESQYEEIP
UniProt P08103, 76-524 Q521E/Q522E/Q523I: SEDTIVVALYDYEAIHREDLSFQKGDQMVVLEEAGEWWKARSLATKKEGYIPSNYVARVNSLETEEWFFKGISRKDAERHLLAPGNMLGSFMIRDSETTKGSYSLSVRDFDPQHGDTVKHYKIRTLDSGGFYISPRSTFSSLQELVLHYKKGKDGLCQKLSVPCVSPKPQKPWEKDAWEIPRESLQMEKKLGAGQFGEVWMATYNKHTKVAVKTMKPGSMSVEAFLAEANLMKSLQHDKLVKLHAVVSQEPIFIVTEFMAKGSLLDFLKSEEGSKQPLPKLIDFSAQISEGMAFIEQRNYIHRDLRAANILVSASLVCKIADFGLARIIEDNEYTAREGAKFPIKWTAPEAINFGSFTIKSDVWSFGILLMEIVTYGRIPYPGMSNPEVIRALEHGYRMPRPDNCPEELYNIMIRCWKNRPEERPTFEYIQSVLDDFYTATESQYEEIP

[2] = target: T2, mHck-TA (Mus musculus, UniProt P08103, Q521E/Q522E/Q523I/T331A); assay: Z'-Lyte in vitro kinase assay, mHck-TA alone
T2 construct: the N-terminal unique domain was replaced with a hexahistidine tag; hexahistidine (N); made in house; host or cells: Sf9 insect cells (baculovirus)
Protocol: as §1

[3] = target: T3, mHck (Mus musculus, UniProt P08103, Q521E/Q522E/Q523I); assay: Z'-Lyte in vitro kinase assay, mHck alone
T3 construct: the N-terminal unique domain was replaced with a hexahistidine tag; hexahistidine (N); made in house; host or cells: Sf9 insect cells (baculovirus)
Protocol: as §1

How did the IC50 [1] turn out when `CC(C)(C)n1nc(-c2cccc3ccccc23)c2c(N)ncnc21` [NaPP1, reference compound] was run?
The IC50 was 0.0085 ± 0.0007 µM.

What about the IC50 [2] of the same compound?
The IC50 was 0.0533 ± 0.0082 µM.

And the IC50 [3]?
Its IC50 is greater than 1 µM.
